Drawing on patent US10112937B2, “P2X7 modulators and methods of use” (Janssen Pharmaceutica NV, priority 2013, dated 2018), this text covers Ki and IC50 for 29 molecules.

By UniProt entry, the sequences of proteins in these tests, tags left out. Where a name states a change or a piece, a line headed by the entry shows the natural chain unless it says otherwise.
UniProt Q64663: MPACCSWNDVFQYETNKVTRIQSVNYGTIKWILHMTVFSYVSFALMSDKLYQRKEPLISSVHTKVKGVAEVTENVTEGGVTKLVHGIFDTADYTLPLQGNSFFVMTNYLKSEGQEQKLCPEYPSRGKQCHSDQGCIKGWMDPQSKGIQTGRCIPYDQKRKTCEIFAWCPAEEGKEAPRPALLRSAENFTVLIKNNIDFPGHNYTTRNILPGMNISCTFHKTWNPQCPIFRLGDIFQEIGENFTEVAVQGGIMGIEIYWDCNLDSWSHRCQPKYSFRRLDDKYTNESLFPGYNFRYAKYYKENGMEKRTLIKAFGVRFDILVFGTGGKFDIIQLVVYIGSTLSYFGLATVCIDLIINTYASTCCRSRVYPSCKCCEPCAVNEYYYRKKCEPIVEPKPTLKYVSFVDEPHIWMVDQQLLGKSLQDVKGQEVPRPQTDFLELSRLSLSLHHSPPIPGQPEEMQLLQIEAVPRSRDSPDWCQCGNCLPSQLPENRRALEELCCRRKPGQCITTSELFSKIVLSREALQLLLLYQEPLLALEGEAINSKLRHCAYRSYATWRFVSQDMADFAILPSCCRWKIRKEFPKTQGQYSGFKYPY
UniProt Q99572: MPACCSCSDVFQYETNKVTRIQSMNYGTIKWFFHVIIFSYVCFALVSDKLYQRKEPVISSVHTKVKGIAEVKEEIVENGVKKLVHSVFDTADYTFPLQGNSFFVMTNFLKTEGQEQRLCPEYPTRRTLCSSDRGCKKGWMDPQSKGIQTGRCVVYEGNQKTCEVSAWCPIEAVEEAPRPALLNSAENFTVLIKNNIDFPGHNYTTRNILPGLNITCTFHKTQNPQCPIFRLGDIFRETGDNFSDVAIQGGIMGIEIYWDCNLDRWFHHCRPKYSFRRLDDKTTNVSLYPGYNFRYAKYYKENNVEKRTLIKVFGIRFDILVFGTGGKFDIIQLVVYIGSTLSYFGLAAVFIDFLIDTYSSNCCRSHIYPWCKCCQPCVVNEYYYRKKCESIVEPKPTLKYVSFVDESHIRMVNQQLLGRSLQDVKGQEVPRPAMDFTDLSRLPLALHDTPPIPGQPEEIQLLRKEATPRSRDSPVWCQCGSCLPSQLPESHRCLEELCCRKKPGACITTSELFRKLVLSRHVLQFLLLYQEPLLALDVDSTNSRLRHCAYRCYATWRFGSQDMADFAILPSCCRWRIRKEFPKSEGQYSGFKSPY

In experiment [1] the target is T1, rat P2X7 (Rattus norvegicus (Rat), UniProt Q64663). Nature of the experiment: Radioligand binding ([3H]A-804598), rat P2X7-1321N1 cell membranes. Particulars: rat P2X7-1321N1 membranes, tritiated A-804598.
Experiment [2] deals with T2, human P2X7 (Homo sapiens (Human), UniProt Q99572). Nature of the experiment: Ca2+ flux (FLIPR) in 1321N1 cells expressing recombinant human P2X7.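 Further: cells loaded with Calcium-4 dye, preincubated with test compound for 30 min, fluorescence change read 180 s after agonist addition.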 It is filed as cell-based.
For experiment [3], the target named is T1, rat P2X7. Nature of the experiment: Ca2+ flux (FLIPR) in 1321N1 cells expressing recombinant rat P2X7.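 Further: Calcium-4 dye fluorescence change read 180 s after agonist addition, with cells preincubated 30 min with compound and dye in 96-well plates.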 It is filed as cell-based. The note with it: recombinant rat P2X7, 250 μM BzATP. In general terms: Calcium flux is commonly read through the fluorescence of an indicator in the cells.
The target of experiment [4] is T2, human P2X7. Nature of the experiment: Radioligand binding ([3H]A-804598), human P2X7-1321N1 cell membranes. Particulars: human P2X7-1321N1 membranes, tritiated A-804598.
Setting [5] is: 1321N1 cells, recombinant human P2X7, 250 μM BzATP.

Each structure is given as a SMILES string. Bounds are passed on as bounds.

One may read the Ki as a measure of affinity in units of concentration, obtained from inhibition or displacement. Usually IC50 stands for the concentration that inhibits the measured activity by half. On rat P2X7 [1], `O=C(c1cccc(C(F)(F)F)c1Cl)N1CCc2c(nnn2-c2cnccn2)C1` [Example 91, 5-{[2-Chloro-3-(trifluoromethyl)phenyl]carbonyl}-1-pyrazin-2-yl-4,5,6,7-tetrahydro-1H-[1,2,3]triazolo[4,5-c]pyridine] gave a Ki of 6.8 nM. In addition, the IC50 on human P2X7 [2] (setting [5]) worked out at 2.7 nM.
As to `CC1c2ncn(-c3ccc(F)cn3)c2CCN1C(=O)c1cccc(C(F)(F)F)c1Cl` (centres unmarked) [Example 11, (2-Chloro-3-(trifluoromethyl)phenyl)(1-(5-fluoropyridin-2-yl)-4-methyl-6,7-dihydro-1H-imidazo[4,5-c]pyridin-5(4H)-yl)methanone], the IC50 on human P2X7 [2] (setting [5]) is 14.2 nM; on rat P2X7 [3], 592 nM.
In the case of `Cc1cccc(-n2nnc3c2CCN(C(=O)c2cccc(C(F)(F)F)c2F)C3C)n1` (centres unmarked) [Example 385, (2-fluoro-3-(trifluoromethyl)phenyl)(4-methyl-1-(6-methylpyridin-2-yl)-6,7-dihydro-1H-[1,2,3]triazolo[4,5-c]pyridin-5(4H)-yl)methanone], the IC50 on human P2X7 [2] (setting [5]) was 46.1 nM.
In the case of `CC1c2ncn(-c3ncccn3)c2CCN1C(=O)c1cccc(C(F)(F)F)c1Cl` (centres unmarked) [Example 23, (2-Chloro-3-(trifluoromethyl)phenyl)(4-methyl-1-(pyrimidin-2-yl)-6,7-dihydro-1H-imidazo[4,5-c]pyridin-5(4H)-yl)methanone], the IC50 at human P2X7 [2] (setting [5]) is 30 nM.
Same read-out and setting: to `O=C(c1cccc(Cl)c1Cl)N1CCc2c(ncn2-c2ccccc2)C1` [Example 3, (2,3-Dichlorophenyl)(1-phenyl-6,7-dihydro-1H-imidazo[4,5-c]pyridin-5(4H)-yl)methanone] belongs 89 nM.
Take `Cc1ccnc(-n2nnc3c2CCN(C(=O)c2cccc(Cl)c2Cl)[C@@H]3C)c1` (single isomer, unassigned) [Example 394, (R*)-(2,3-dichlorophenyl)(4-methyl-1-(4-methylpyridin-2-yl)-6,7-dihydro-1H-[1,2,3]triazolo[4,5-c]pyridin-5(4H)-yl)methanone]: the IC50 on rat P2X7 [3] amounted to 346 nM.
For the molecule `CCOC(=O)C1c2ncn(-c3ccccc3)c2CCN1C(=O)c1cccc(Cl)c1Cl` (centres unmarked) [Example 27, Ethyl 5-(2,3-dichlorobenzoyl)-1-phenyl-4,5,6,7-tetrahydro-1H-imidazo[4,5-c]pyridine-4-carboxylate], the IC50 at human P2X7 [2] (setting [5]) came out at 164 nM.
In the case of `C[C@@H]1c2ncn(-c3ncc(F)cn3)c2CCN1C(=O)c1cccc(C(F)(F)F)c1Cl` (single isomer, unassigned) [Example 193, (R*)-(2-Chloro-3-(trifluoromethyl)phenyl)(1-(5-fluoropyrimidin-2-yl)-4-methyl-6,7-dihydro-1H-imidazo[4,5-c]pyridin-5(4H)-yl)methanone], the IC50 on rat P2X7 [3] amounted to 301 nM.
Take `O=C(c1cccc(C(F)(F)F)c1Cl)N1CCc2c(ncn2-c2ccccn2)C1CF` (centres unmarked) [Example 32, (2-Chloro-3-(trifluoromethyl)phenyl)(4-(fluoromethyl)-1-(pyridin-2-yl)-6,7-dihydro-1H-imidazo[4,5-c]pyridin-5(4H)-yl)methanone]: on human P2X7 [2] (setting [5]), the IC50 is 11.1 nM.
Turning to `CC1c2ncn(-c3ccccc3)c2CCN1C(=O)c1cccc(C(F)(F)F)c1Cl` (centres unmarked) [Example 12, (2-Chloro-3-(trifluoromethyl)phenyl)(4-methyl-1-phenyl-6,7-dihydro-1H-imidazo[4,5-c]pyridin-5(4H)-yl)methanone], the IC50 at rat P2X7 [3] was 766 nM.
`O=C(c1cccc(C(F)(F)F)c1Cl)N1CCc2c(ncn2-c2ccc(F)cn2)C1` [Example 315, (2-chloro-3-(trifluoromethyl)phenyl)(1-(5-fluoropyridin-2-yl)-6,7-dihydro-1H-imidazo[4,5-c]pyridin-5(4H)-yl)methanone]: at human P2X7 [2] (setting [5]), the IC50 turned out to be 28.1 nM.
On rat P2X7 [1], `Cc1c(C(=O)N2CCc3c(nnn3-c3ncccn3)[C@H]2C)cccc1C(F)(F)F` (single isomer, unassigned) [Example 188, (R*)-(4-methyl-1-(pyrimidin-2-yl)-6,7-dihydro-1H-[1,2,3]triazolo[4,5-c]pyridin-5(4H)-yl)(2-methyl-3-(trifluoromethyl)phenyl)methanone] returned a Ki of 2.5 nM.
Regarding `O=C(c1cccc(C(F)(F)F)c1Cl)N1CCc2c(nnn2-c2ccccn2)C1` [Example 63, 5-{[2-Chloro-3-(trifluoromethyl)phenyl]carbonyl}-1-pyridin-2-yl-4,5,6,7-tetrahydro-1H-[1,2,3]triazolo[4,5-c]pyridine], the IC50 at human P2X7 [2] (setting [5]) was 3.8 nM.
As for `C[C@@H]1c2ncn(-c3ccc(F)cc3)c2CCN1C(=O)c1cccc(C(F)(F)F)c1Cl` (single isomer, unassigned) [Example 46, (4R*)-5-{[2-Chloro-3-(trifluoromethyl)phenyl]carbonyl}-1-(4-fluorophenyl)-4-methyl-4,5,6,7-tetrahydro-1H-imidazo[4,5-c]pyridine], the IC50 on rat P2X7 [3] came to 303 nM.
On to `CC1c2ncn(-c3ccccn3)c2CCN1C(=O)c1cccc(C(F)(F)F)c1Cl` (centres unmarked) [Example 17, (2-Chloro-3-(trifluoromethyl)phenyl)(4-methyl-1-(pyridin-2-yl)-6,7-dihydro-1H-imidazo[4,5-c]pyridin-5(4H)-yl)methanone], for which the IC50 came out at 33.9 nM on human P2X7 [2] (setting [5]) and 295 nM at rat P2X7 [3].
`Cc1ccnc(-n2nnc3c2CCN(C(=O)c2ccnc(C(F)(F)F)c2Cl)C3C)c1` (centres unmarked) [Example 358, (3-chloro-2-(trifluoromethyl)pyridin-4-yl)(4-methyl-1-(4-methylpyridin-2-yl)-6,7-dihydro-1H-[1,2,3]triazolo[4,5-c]pyridin-5(4H)-yl)methanone]: the Ki on human P2X7 [4] is 38 nM.
`CC1c2n[nH]c(-c3ccccn3)c2CCN1C(=O)c1cccc(C(F)(F)F)c1Cl` (centres unmarked) [Example 432, (2-chloro-3-(trifluoromethyl)phenyl)(7-methyl-3-(pyridin-2-yl)-4,5-dihydro-2H-pyrazolo[3,4-c]pyridin-6(7H)-yl)methanone]: the IC50 on human P2X7 [2] (Ca2+ flux, 250 μM BzATP, human P2X7 1321N1 cells) worked out at 12.6 nM.
Regarding `CCC1c2ncn(-c3cnccn3)c2CCN1C(=O)c1cccc(C(F)(F)F)c1Cl` (centres unmarked) [Example 15, (2-Chloro-3-(trifluoromethyl)phenyl)(4-ethyl-1-(pyrazin-2-yl)-6,7-dihydro-1H-imidazo[4,5-c]pyridin-5(4H)-yl)methanone], at rat P2X7 [3], the IC50 worked out at 135 nM.
On to `CC1c2ncn(-c3ncc(F)cn3)c2CCN1C(=O)c1cccc(C(F)(F)F)c1Cl` (centres unmarked) [Example 22, (2-Chloro-3-(trifluoromethyl)phenyl)(1-(5-fluoropyrimidin-2-yl)-4-methyl-6,7-dihydro-1H-imidazo[4,5-c]pyridin-5(4H)-yl)methanone], for which the IC50 at human P2X7 [2] (setting [5]) is 9.6 nM.
With `Cc1cc(-n2nnc3c2CCN(C(=O)c2cccc(C(F)(F)F)c2Cl)C3C)ncc1F` (centres unmarked) [Example 381, (2-chloro-3-(trifluoromethyl)phenyl)(1-(5-fluoro-4-methylpyridin-2-yl)-4-methyl-6,7-dihydro-1H-[1,2,3]triazolo[4,5-c]pyridin-5(4H)-yl)methanone], the IC50 at human P2X7 [2] (setting [5]) is 38.5 nM. The affinity on human P2X7 [4], expressed as Ki, was 120 nM.
`O=C(c1cccc(C(F)(F)F)c1Cl)N1CCc2c(ncn2-c2ccccn2)C1` [Example 1, (2-Chloro-3-(trifluoromethyl)phenyl)(1-(pyridin-2-yl)-6,7-dihydro-1H-imidazo[4,5-c]pyridin-5(4H)-yl)methanone]: the IC50 at rat P2X7 [3] is 609 nM.
As to `O=C(c1ccc(Cl)cc1Cl)N1CCc2c(nnn2-c2ncccn2)C1` [Example 257, (2,4-dichlorophenyl)(1-(pyrimidin-2-yl)-6,7-dihydro-1H-[1,2,3]triazolo[4,5-c]pyridin-5(4H)-yl)methanone], the IC50 on human P2X7 [2] (setting [5]) was found to be 387 nM.
On to `CC1c2ncn(-c3ccccn3)c2CCN1C(=O)c1cccc(C(F)(F)F)c1F` (single isomer, unassigned) [Example 42, (4R*)-5-{[2-Fluoro-3-(trifluoromethyl)phenyl]carbonyl}-4-methyl-1-pyridin-2-yl-4,5,6,7-tetrahydro-1H-imidazo[4,5-c]pyridine], for which the IC50 on human P2X7 [2] (setting [5]) is 48.8 nM.
On the same count and under the same terms, to `C[C@H]1c2ncn(-c3ccc(F)cn3)c2CCN1C(=O)c1cccc(C(F)(F)F)c1Cl` (stereo in doubt) [Example 41, (4S*)-5-{[2-Fluoro-3-(trifluoromethyl)phenyl]carbonyl}-4-methyl-1-pyridin-2-yl-4,5,6,7-tetrahydro-1H-imidazo[4,5-c]pyridine] belongs 2600 nM.
Consider `O=C(c1cccc(C(F)(F)F)c1Cl)N1CCc2c(nnn2-c2ncc(F)cn2)C1` [Example 64, 5-{[2-Chloro-3-(trifluoromethyl)phenyl]carbonyl}-1-(5-fluoropyrimidin-2-yl)-4,5,6,7-tetrahydro-1H-[1,2,3]triazolo[4,5-c]pyridine], for which the affinity at rat P2X7 [1], expressed as Ki, was 21.6 nM. Also, the IC50 on rat P2X7 [3] is 2880 nM.
`O=C(c1cccc(C(F)(F)F)c1Cl)N1CCc2c(nnn2-c2ncccn2)C1` [Example 65, 5-{[2-Chloro-3-(trifluoromethyl)phenyl]carbonyl}-1-pyrimidin-2-yl-4,5,6,7-tetrahydro-1H-[1,2,3]triazolo[4,5-c]pyridine] yielded a Ki at rat P2X7 [1] of 2.8 nM.
On to `Cc1ccnc(-n2nnc3c2CCN(C(=O)c2cccc(Cl)c2C)C3C)c1` (centres unmarked) [Example 388, (3-chloro-2-methylphenyl)(4-methyl-1-(4-methylpyridin-2-yl)-6,7-dihydro-1H-[1,2,3]triazolo[4,5-c]pyridin-5(4H)-yl)methanone], for which, at human P2X7 [2] (setting [5]), the half-maximal inhibitory concentration (IC50) is 21.9 nM.
In the case of `Cc1ccnc(-n2nnc3c2CCN(C(=O)c2ccnc(C(F)(F)F)c2Cl)[C@H]3C)c1` (single isomer, unassigned) [Example 360, (S*)-(3-chloro-2-(trifluoromethyl)pyridin-4-yl)(4-methyl-1-(4-methylpyridin-2-yl)-6,7-dihydro-1H-[1,2,3]triazolo[4,5-c]pyridin-5(4H)-yl)methanone], the IC50 at human P2X7 [2] (setting [5]) and at rat P2X7 [3] was over 10000 nM in each case.
In the case of `CC1c2ncn(-c3ncccc3F)c2CCN1C(=O)c1cccc(C(F)(F)F)c1Cl` (centres unmarked) [Example 21, (2-Chloro-3-(trifluoromethyl)phenyl)(1-(3-fluoropyridin-2-yl)-4-methyl-6,7-dihydro-1H-imidazo[4,5-c]pyridin-5(4H)-yl)methanone], the IC50 at rat P2X7 [3] was found to be 2320 nM.
